Source: ChEMBL document CHEMBL4190249, “Antiproliferative and apoptotic activities of sequence-specific histone acetyltransferase inhibitors” (Eur J Med Chem, 2017)

Amino acid sequences for entries named in this document (tags omitted).
UniProt Q09472, whole entry: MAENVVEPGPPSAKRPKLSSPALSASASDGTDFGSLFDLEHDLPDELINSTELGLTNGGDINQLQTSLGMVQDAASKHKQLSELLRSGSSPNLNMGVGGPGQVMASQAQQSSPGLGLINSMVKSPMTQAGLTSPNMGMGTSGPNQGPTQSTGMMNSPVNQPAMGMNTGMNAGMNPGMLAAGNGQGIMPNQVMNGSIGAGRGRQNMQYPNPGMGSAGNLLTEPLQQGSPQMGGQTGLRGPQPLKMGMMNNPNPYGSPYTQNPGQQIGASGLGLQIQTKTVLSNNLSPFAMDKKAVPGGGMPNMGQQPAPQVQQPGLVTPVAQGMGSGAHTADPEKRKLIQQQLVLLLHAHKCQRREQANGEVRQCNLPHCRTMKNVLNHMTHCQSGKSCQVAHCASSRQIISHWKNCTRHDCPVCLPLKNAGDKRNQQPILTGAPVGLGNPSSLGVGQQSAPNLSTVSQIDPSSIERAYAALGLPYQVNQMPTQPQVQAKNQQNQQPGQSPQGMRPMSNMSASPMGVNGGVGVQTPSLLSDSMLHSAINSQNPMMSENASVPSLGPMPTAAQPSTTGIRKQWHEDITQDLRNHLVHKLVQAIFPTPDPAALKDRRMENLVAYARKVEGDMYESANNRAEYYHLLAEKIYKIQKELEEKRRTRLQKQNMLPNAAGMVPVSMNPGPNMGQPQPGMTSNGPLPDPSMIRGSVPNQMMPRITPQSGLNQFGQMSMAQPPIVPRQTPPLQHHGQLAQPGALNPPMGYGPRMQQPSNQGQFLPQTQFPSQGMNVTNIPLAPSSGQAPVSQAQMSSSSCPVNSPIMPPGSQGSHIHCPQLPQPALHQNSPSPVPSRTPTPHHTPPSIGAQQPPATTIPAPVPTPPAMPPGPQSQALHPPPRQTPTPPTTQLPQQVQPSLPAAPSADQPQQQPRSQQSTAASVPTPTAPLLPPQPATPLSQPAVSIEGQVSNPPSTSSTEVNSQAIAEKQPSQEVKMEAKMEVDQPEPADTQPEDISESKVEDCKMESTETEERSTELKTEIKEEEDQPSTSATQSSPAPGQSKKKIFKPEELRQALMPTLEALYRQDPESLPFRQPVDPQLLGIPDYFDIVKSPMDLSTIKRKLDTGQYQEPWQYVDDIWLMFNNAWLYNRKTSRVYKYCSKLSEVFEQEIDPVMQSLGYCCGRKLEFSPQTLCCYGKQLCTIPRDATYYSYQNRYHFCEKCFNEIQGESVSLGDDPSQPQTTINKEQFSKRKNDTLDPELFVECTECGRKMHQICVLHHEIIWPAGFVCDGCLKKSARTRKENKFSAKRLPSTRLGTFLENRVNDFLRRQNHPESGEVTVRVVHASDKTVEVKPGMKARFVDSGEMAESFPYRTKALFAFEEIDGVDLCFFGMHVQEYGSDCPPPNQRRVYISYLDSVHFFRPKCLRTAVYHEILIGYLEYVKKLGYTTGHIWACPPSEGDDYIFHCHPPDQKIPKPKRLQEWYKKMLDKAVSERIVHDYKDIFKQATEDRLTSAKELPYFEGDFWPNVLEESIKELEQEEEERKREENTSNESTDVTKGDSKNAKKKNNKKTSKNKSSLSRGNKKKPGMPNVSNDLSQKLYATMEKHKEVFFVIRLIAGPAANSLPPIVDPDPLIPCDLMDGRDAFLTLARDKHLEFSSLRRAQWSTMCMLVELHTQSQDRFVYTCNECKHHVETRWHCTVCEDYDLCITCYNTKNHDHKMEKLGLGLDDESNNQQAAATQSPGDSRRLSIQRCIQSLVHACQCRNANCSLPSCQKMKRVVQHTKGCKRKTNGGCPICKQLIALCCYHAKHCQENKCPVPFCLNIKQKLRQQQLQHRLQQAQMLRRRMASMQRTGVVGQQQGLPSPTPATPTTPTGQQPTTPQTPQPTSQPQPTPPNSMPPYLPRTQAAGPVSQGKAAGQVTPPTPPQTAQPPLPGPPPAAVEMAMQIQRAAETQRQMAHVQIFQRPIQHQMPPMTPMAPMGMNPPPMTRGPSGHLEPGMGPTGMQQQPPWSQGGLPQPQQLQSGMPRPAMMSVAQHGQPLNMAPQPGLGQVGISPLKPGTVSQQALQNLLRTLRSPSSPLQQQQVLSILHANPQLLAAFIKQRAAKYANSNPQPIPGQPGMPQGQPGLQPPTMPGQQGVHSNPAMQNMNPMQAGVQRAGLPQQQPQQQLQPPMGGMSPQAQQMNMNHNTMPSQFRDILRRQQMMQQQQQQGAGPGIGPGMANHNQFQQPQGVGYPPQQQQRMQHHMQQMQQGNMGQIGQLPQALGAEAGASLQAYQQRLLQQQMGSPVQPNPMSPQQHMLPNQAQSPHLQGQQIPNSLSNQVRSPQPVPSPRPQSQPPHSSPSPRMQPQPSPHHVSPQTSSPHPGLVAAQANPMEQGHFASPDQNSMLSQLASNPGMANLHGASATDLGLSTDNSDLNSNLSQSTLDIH

Target: Histone acetyltransferase p300 (Homo sapiens, UniProt Q09472)
Experiment: Inhibition of p300 (unknown origin)

INH: 8.5 µM
Structure (SMILES): CCCCCCCCCCCCCCCc1cccc(O)c1C(=O)O
